The values that follow are results of earlier work, collected in US20090062391A1, “Use of a virucidal ointment in the nares for prevention of transmission and contraction of common colds” (priority 2007, published 2009).

Structures are written as SMILES.

This data set relates to rhinovirus. The note with it: Hendley et al. [4].

As for `Oc1c(Cl)cc(Cl)c(Cl)c1Cc1c(O)c(Cl)cc(Cl)c1Cl` [hexachlorophene], the antiviral activity entry was “performed poorly”.
